In the library only some 0.91% were active in any assay of this set; here they are far more common.
iPSC survival up: enhancers of single-cell hiPSC survival, primary screen, ATPlite luminescence; 100% = ROCK inhibitor wells, 0% = DMSO; survival enhancement, % at 20 µM; actives 0.044% (n = 360,000); in the data active = survival enhancement above about 18%;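 also: cells exposed to compounds for 16 hours before the ATP read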
FN deposit inh: inhibitors of fibronectin matrix deposition, primary screen, AH1F cells, Alexa488-fibronectin fluorescence, plate reader; AH1F fibroblasts, overnight; inhibition, % at 12.6 µM; actives 0.086% (n = 350,000); AID 743247, 2014;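 active = mean inhibition across replicates of 30% or more, regardless of how many single replicates reach that level; inconclusive = mean under 30% yet at least half of replicates reach 30%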;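 also: positive control wells lacked labelled fibronectin entirely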
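Test system: AH1F fibroblast monolayer depositing Alexa488-labelled fibronectin into matrix. Input: 10000 cells per well. Technique: fluorescence, ex 485 nm, em 525 nm. Buffer or medium: DMEM plus 2% serum, read in PBS. Timing: 1 h cell adhesion before compound, then overnight fibronectin incubation. Compound: single dose, pinned. Read-out basis: inhibition from reduced deposited-fibronectin fluorescence.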
UUG fidelity: alters start codon recognition fidelity in yeast | S. cerevisiae UUG-firefly luciferase reporter, luminescence/redox ratio | activity score, % at 18.7 µM | hit rate 0.13% among 350,000 | AID 602363;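 active means replicate mean at a twofold rise or more, about +100% in these data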;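 further: firefly luciferase made from a UUG start codon reports start codon fidelity; reporter light over untreated wells divided by growth signal over untreated wells; some hits fall short of that in this replicate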
PGC1a acetyl inh: inhibitors of PGC1a acetylation signal, primary screen, cell-based, U2OS, AlphaScreen, inhibitor mode | AlphaScreen anti-acetyl-lysine; with virally co-expressed GCN5 acetyltransferase | inhibition, % at 15.6 µM | actives 0.17% (n = 350,000) | AID 651687, 2012;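 active = every replicate shows inhibition of at least 40%; inconclusive = mean inhibition at least 40% but some replicate below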;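 also: 0% = neutral control wells and 100% = positive control wells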
C2C12 statin: suppressors of statin myotoxicity in C2C12 myotubes, primary screen, cell-based, single point, plate reader; C2C12 myotubes + simvastatin, ATP luminescence, 48 h; scaled: DMSO 0, geranylgeraniol control 100; rescue of ATP level, % at 7.49 µM; actives 0.78% (n = 330,000); AID 602340, 2012;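 active = mean ATP rescue above about 67%, or every replicate alone reaching that limit, limit read from the data, passing the limit was not always enough; inconclusive = no clear call, values can overlap the other calls; inactive = mean under the limit and some replicate under it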;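 also: myotubes were challenged with 10 µM simvastatin during compound exposure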
C2C12 COX5a inh: inhibitors of PGC-1a-driven COX5a expression, dose response, cell-based, C2C12 myotubes, RT-qPCR, cherry-picked samples; 45 tested, under 10 active; maximal activity, %; C2C12 myotubes PGC-1a adenovirus; AID 743461, 2014; shares compounds with PGC1a acetyl inh;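 active = fitted dose curve reaching 40% activity at or below the highest valid dose tested; inconclusive = flat fit between 30% and 70%, or an unusable fit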
AID743468: change in PGC-1a target gene PDK4 expression, dose response, C2C12 myotubes, RT-qPCR, cherry-pick. PDK4 expression increase, % at 19.5 µM. shares compounds with PGC1a acetyl inh. PGC-1a adenovirus, PDK4 mRNA qPCR. 45 tested, under 10 active;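 active = fitted curve reaching a 40% PDK4 expression rise at or below the top valid tested dose; inconclusive = no clear call, values can overlap the other calls; inactive = the rest, including shifts the wrong way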
Starred values were filed as active, the others as inactive; u = inconclusive; x = no result; ! = a repeat was not active; [ ] = dose if it differs, or a comment.

SMILES	iPSC survival up	FN deposit inh	UUG fidelity	PGC1a acetyl inh	C2C12 statin	C2C12 COX5a inh	AID743468
Cc1c(CN(C)C)c2c(n1C)C(=O)c1ccc(Br)cc1-2	3.0	-0.3	-13.0	-4.6	11.0	x	x
Cc1cc(C)cc(OC(=O)CS(=O)c2ccc(C(F)(F)F)cc2[N+](=O)[O-])c1 (stereo unspecified)	-0.4	21.2	-11.8	-63.9	-26.9	-29.4	-14.9
C=CS(=O)(=O)N(Cc1ccccc1)[C@H](CO)CC(C)C	1.6	-3.0	-5.0	-15.8	-1.3	x	x
C=CS(=O)(=O)N(Cc1ccccc1Br)[C@H](CO)Cc1ccccc1	-1.0	7.7	-7.5	u	-1.2	-23.9	-28.9
N#C[C@H]1[C@H](c2ccc(C#Cc3ccccc3F)cc2)[C@@H](CO)N1C(=O)c1cccnc1	x	-7.6	x	-8.9	28.5	x	x
O=C(Nc1cccc(F)c1)N1CC(=O)N2[C@H](C1)[C@H](c1ccc(C#Cc3cccnc3)cc1)[C@@H]2CO	x	x	x	20.9	x	x	x
O=C(Nc1cccc(F)c1)N1CC(=O)N2[C@@H](CO)[C@@H](c3ccc(C#Cc4cccnc4)cc3)[C@@H]2C1	x	x	x	u	x	-24.7	49.0*
COc1ccc(CN2C[C@@H](O)COC[C@H]3O[C@@H](CC(=O)NCc4ccncn4)CC[C@@H]32)cc1	x	-2.9	1.2	-0.2	-1.2	x	x
C[C@@H]1CN([C@@H](C)CO)C(=O)c2cccc(NS(=O)(=O)c3ccccc3)c2O[C@H]1CN(C)Cc1ccc(-c2ccccc2)cc1	x	x	10.8	-30.7	-13.7	x	x
CC(=O)N(C)C[C@@H]1Oc2ncc(C#Cc3ccccc3)cc2C(=O)N([C@@H](C)CO)C[C@H]1C	x	x	-6.2	8.6	20.3	x	x
Cc1ccc(-c2nc(NC(=O)c3nn(C)cc3[N+](=O)[O-])sc2C)cc1	-4.6	x	0.4	95.7*	-135.4	-24.9	4.0[6.8 µM]
Cc1cnc(NC(=O)c2nn(C)cc2[N+](=O)[O-])s1	-0.6	9.5	x	-130.8	x	x	x
N#Cc1ccc(-c2ccc(C3[C@@H]4CN(C(=O)Nc5ccc(C(F)(F)F)cc5)C[C@H]3N4)cc2)cc1 (stereo partly specified)	x	17.4	x	-4.6	x	x	x
Cc1ccc(-c2ccc(C3[C@@H]4CN(C(=O)Nc5ccc(C(F)(F)F)cc5)C[C@H]3N4)cc2)cc1 (stereo partly specified)	x	16.5	x	69.7*!	x	-32.2	-14.8
C[C@H]1CN([C@@H](C)CO)S(=O)(=O)c2ccc(C#CC3(O)CCCC3)cc2O[C@H]1CN(C)C(=O)c1cccnc1	x	x	x	4.0	8.8	x	x
COC(=O)c1nn(-c2ccccc2)ccc1=O	1.1	x	x	44.3*	x	-33.4	-11.0
O=C(Nc1ccc(N2CCN(Cc3ccccc3F)CC2)cc1)c1ccc([N+](=O)[O-])o1	-0.4	-0.4	25.8	72.7*	x	-40.1	14.6
O=C(Nc1ccc(N2CCN(Cc3ccccc3F)CC2)cc1)c1ccccc1[N+](=O)[O-]	-0.8	1.3	x	-21.7	x	x	x
Cn1nnnc1SCC(=O)NCc1cccc(C(=O)O)c1	-1.3	-3.2	-9.5	u	-15.3	-25.7	-5.7
Cc1ccc(S(=O)(=O)N(C)C[C@H]2Oc3cc(C#Cc4ccncc4)ccc3S(=O)(=O)N([C@H](C)CO)C[C@H]2C)cc1	x	10.6	x	44.4*	-12.4	23.0	-8.4
C[C@H](CO)N1C[C@H](C)[C@@H](CN(C)Cc2cccnc2)Oc2cc(C#CC3CCCCC3)ccc2S1(=O)=O	x	x	-5.4	u	-46.0	39.1	2.4
C[C@@H]1CN([C@@H](C)CO)C(=O)CCCn2cc(nn2)CO[C@H]1CN(C)C(=O)Nc1ccc(C(F)(F)F)cc1	x	-3.7	5.0	1.6	6.9	x	x
CCCN(CC)c1ncnc2[nH]ncc12	1.7	x	-23.3	u	-0.6	15.3	61.6*

Reformatted with each value named: part of the list above.
> Cc1ccc(-c2ccc(C3[C@@H]4CN(C(=O)Nc5ccc(C(F)(F)F)cc5)C[C@H]3N4)cc2)cc1 (stereo partly specified)
- iPSC survival up = x
- FN deposit inh = 16.5
- UUG fidelity = x
- PGC1a acetyl inh = 69.7*!
- C2C12 statin = x
- C2C12 COX5a inh = -32.2
- AID743468 = -14.8

> O=C(Nc1ccc(N2CCN(Cc3ccccc3F)CC2)cc1)c1ccc([N+](=O)[O-])o1
- iPSC survival up = -0.4
- FN deposit inh = -0.4
- UUG fidelity = 25.8
- PGC1a acetyl inh = 72.7*
- C2C12 statin = x
- C2C12 COX5a inh = -40.1
- AID743468 = 14.6

> O=C(Nc1cccc(F)c1)N1CC(=O)N2[C@@H](CO)[C@@H](c3ccc(C#Cc4cccnc4)cc3)[C@@H]2C1
- iPSC survival up = x
- FN deposit inh = x
- UUG fidelity = x
- PGC1a acetyl inh = u
- C2C12 statin = x
- C2C12 COX5a inh = -24.7
- AID743468 = 49.0*

From PubChem BioAssay
